# Test results from US6252121A, “Metal-ligand complex catalyzed processes” (Union Carbide Chemicals & Plastics Technology Corporation, priority 1999, dated 2001).
# Assay: Rhodium partition coefficient, hexane/dialdehyde system
# Settings: Ligand E
row,Structure (SMILES),partition coefficient for the rhodium
1,CCCCCC(C)(C)c1ccc(OP(Oc2ccc(C(C)(C)CCCCC)cc2C(C)(C)CCCCC)Oc2ccc(C(C)(C)CCCCC)cc2C(C)(C)CCCCC)c(C(C)(C)CCCCC)c1 [Ligand E],59

# Assay: Ligand partition coefficient, hexane/acetonitrile distribution test (HPLC)
# Settings: hexane:acetonitrile (1:1) solvent system
row,Structure (SMILES),partition coefficient of the ligand (Kpartition)
1,CC(C)(C)c1ccc(OP(Oc2ccc(C(C)(C)C)cc2C(C)(C)C)Oc2ccc(C(C)(C)C)cc2C(C)(C)C)c(C(C)(C)C)c1 [Ligand C],260
2,CCCCCC(C)(C)c1ccc(OP(Oc2ccc(C(C)(C)CCCCC)cc2C(C)(C)CCCCC)Oc2ccc(C(C)(C)CCCCC)cc2C(C)(C)CCCCC)c(C(C)(C)CCCCC)c1 [Ligand E],970
3,CC(C)(C)c1ccccc1OP(Oc1ccccc1C(C)(C)C)Oc1ccccc1C(C)(C)C [Ligand B],8.7
4,CC(C)(c1ccccc1)c1ccc(OP(Oc2ccc(C(C)(C)c3ccccc3)cc2C(C)(C)c2ccccc2)Oc2ccc(C(C)(C)c3ccccc3)cc2C(C)(C)c2ccccc2)c(C(C)(C)c2ccccc2)c1 [Ligand A],4.1
5,CCC(C)(C)c1ccc(OP(Oc2ccc(C(C)(C)CC)cc2C(C)(C)CC)Oc2ccc(C(C)(C)CC)cc2C(C)(C)CC)c(C(C)(C)CC)c1 [Ligand D],400
6,CCCCCCCCCC(C)(C)c1ccc(OP(Oc2ccc(C(C)(C)CCCCCCCCC)cc2C(C)(C)CCCCCCCCC)Oc2ccc(C(C)(C)CCCCCCCCC)cc2C(C)(C)CCCCCCCCC)c(C(C)(C)CCCCCCCCC)c1 [Ligand F],> 1000
